Experimental data: publication PMC6273799, “The Interference of Selected Cytotoxic Alkaloids with the Cytoskeleton: An Insight into Their Modes of Action” (Molecules, 2016)

Amino acid sequences for entries named in this document (tags omitted).
UniProt P02550, whole entry: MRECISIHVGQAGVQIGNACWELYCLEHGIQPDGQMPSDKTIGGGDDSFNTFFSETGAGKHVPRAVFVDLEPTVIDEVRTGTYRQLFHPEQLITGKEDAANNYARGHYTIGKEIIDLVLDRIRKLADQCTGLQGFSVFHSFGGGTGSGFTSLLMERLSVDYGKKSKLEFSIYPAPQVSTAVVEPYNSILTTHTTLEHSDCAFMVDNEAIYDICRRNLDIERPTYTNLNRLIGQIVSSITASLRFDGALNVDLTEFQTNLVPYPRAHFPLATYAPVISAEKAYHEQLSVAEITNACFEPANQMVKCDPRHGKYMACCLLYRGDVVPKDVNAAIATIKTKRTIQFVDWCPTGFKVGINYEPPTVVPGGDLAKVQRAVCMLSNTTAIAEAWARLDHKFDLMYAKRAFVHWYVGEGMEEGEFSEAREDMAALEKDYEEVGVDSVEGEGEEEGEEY
UniProt P02554, whole entry: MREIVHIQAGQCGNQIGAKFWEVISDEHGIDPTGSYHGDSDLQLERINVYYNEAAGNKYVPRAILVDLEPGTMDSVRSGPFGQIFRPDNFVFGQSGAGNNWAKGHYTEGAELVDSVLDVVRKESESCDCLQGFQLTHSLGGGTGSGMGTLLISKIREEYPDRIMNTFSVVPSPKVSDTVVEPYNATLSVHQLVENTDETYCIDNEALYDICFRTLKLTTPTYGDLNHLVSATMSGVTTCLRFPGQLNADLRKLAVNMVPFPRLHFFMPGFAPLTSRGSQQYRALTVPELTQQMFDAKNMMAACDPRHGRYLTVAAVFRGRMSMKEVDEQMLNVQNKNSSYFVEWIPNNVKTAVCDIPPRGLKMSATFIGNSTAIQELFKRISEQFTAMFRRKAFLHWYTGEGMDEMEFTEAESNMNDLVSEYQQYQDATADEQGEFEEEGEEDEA

Target: T1, tubulin plus microtubule-associated proteins (MAPs) from porcine brains (Sus scrofa, UniProt P02550+P02554)
T1 construct: prepared from porcine brains (freshly obtained from a local slaughter house) by two cycles of polymerization and depolymerization; from tissue; host or cells: porcine brain
Experiment: In vitro tubulin polymerization assay (light scattering at 360 nm)
Assay type: biochemical
Protocol: Tubulin plus microtubule-associated proteins (MAPs) were prepared from porcine brains (freshly obtained from a local slaughter house) by two cycles of polymerization and depolymerization according to a standard protocol. […] The rate and extent of the polymerization reaction were monitored by light scattering at 360 nm using Tecan infinite M200 Pro.
All experiments were performed at least three times. Data are presented as the mean ± standard deviation. Statistical comparison between controls and different treatments were performed by an unpaired Student’s t-test. Significance was considered at p < 0.05.

Structure (SMILES) | effect on tubulin polymerization in vitro
C/C1=C/C(=O)O[C@@H]2C[C@@H](CC[C@H](C)/C=C\CC1)O[C@@](O)([C@@H]1CSC(=O)N1)C2 [Latrunculin B, latrunculin B] | did not affect tubulin polymerization
COc1ccc2c(c1OC)C(=O)O[C@@H]2[C@H]1c2c(cc3c(c2OC)OCO3)CCN1C [Noscapine, noscapine] | did not affect tubulin polymerization
